# Source: PubChem BioAssay AID588579 (National Center for Advancing Translational Sciences (NCATS), 2011)
# Protein sequences, listed by entry. Tags and fused reporters are not part of them.
# UniProt Q9UBT6, whole entry: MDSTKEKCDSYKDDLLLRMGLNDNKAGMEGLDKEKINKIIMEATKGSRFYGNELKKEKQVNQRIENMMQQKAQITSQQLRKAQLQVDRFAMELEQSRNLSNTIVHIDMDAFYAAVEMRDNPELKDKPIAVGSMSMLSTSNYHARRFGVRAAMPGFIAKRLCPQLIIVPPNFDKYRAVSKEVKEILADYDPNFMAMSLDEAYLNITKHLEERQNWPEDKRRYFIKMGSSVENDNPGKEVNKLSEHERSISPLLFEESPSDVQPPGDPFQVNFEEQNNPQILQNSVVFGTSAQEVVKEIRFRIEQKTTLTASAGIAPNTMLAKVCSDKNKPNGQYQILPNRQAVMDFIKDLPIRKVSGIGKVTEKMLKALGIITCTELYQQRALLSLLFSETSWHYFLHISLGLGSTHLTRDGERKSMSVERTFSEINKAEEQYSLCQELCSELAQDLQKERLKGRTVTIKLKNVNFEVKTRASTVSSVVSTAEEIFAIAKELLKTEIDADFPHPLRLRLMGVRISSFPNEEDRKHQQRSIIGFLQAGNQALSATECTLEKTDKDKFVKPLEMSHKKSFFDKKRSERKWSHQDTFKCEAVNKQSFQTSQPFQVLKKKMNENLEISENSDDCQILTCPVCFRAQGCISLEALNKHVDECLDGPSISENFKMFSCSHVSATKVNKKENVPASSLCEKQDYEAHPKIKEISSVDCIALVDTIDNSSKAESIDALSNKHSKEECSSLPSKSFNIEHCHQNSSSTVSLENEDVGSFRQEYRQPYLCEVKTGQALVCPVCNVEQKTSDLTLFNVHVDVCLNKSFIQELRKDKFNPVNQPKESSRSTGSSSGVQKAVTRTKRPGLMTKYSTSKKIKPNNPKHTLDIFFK
# The list shows a part of the results, in another mix than the full data. Results filed as inconclusive are left out. Some salts and complexes are drawn in separate pieces, as the source files them; their charges need not balance. The source made the active and inactive calls. Calls come from the whole dose curve; as a rule, active = well fitted inhibition curve with a large enough effect; inconclusive = small, poorly fitted or top-dose-only effect, or another doubt; inactive = no such curve, though single readings can be large or run the other way.
# Biological target: DNA polymerase kappa (Homo sapiens) (UniProt Q9UBT6)
# Test: qHTS for Inhibitors of Polymerase Kappa
# Conditions: purified Pol kappa, fluorescent DNA synthesis assay, 10 min; at 107 µM (top of the series)
# Procedure: The processing and repair of DNA interstrand crosslinks (ICL) in eukaryotic cells are extremely complex, potentially involving multiple DNA repair and damage tolerance pathways, including homologous recombination, nucleotide excision repair, translesion synthesis (TLS), and cell cycle checkpoints.
# To that end, in a collaboration between the Oregon Health & Science University and the NIH Chemical Genomics Center a 1536-well high-throughput screen was developed. This fluorescent screen was assayed against the NIH Molecular Libraries Small Molecule Repository (MLSMR) to discover inhibitors of Pol Kappa.
# NIH Chemical Genomics Center [NCGC]
# NIH Molecular Libraries Probe Centers Network [MLPCN]
# Assay Submitter (PI): Stephen Lloyd, Oregon Health & Science University
# Three microliters of reagents (buffer in column 3 and 4 as negative control and 10 nM Pol kappa in columns 1, 2, and 5-48) were dispensed into a 1536-well black solid-bottom plate. Compounds (23 nL) were transferred via Kalypsys pin tool equipped with 1536-pin array. The plates were then incubated for 15 min at room temperature, and 1 uL substrate (50 nM final concentration) were then added to start the reaction and kinetically read twice at 0 min and 10 min on the Viewlux reader
# % is set by controls: 0 for no effect and ±100 for the full control effect.
row,SMILES,"activity, negative = inhibition"
1,ClCCN(CCCl)c1ccccc1,inactive: -14.4%
2,ClCCN(CCCl)c1ccc(C=C2C=CC=C2)cc1,inactive: -20.9%
3,Cn1c(=O)[nH]cc(N(CCCl)CCCl)c1=O,inactive: -3.39%
4,Cc1cc(N(CCCl)CCCl)ccc1C=O,inactive: -3.8%
5,CCOC(=O)C(CC)C1=NC(C)(C)Cc2ccccc21.O=[N+]([O-])c1cc([N+](=O)[O-])c(O)c([N+](=O)[O-])c1 (stereo not drawn),inactive: -12.4%
6,O=C(O)c1cccc(Nc2c([N+](=O)[O-])cc([N+](=O)[O-])cc2[N+](=O)[O-])c1,inactive: -24.8%
7,N/C(=N\O)c1c(N)no[n+]1[O-],inactive: -9.92%
8,O=Cc1ccc(N(CCCl)CCCl)cc1,inactive: 4.72%
9,COc1ccc2c(c1O)-c1c(O)c(OC)cc3c1[C@H](C2)[N+](C)(C)CC3.O=[N+]([O-])c1cc([N+](=O)[O-])c([O-])c([N+](=O)[O-])c1[O-],inactive: -30.1%
10,O=C(OC1CN2CCC1CC2)c1ccc([N+](=O)[O-])cc1 (stereo not drawn),inactive: 4.56%
11,O=[N+]([O-])c1cc([N+](=O)[O-])c(OC2CCCCC2O)c([N+](=O)[O-])c1 (stereo not drawn),inactive: -3.94%
12,O=[N+]([O-])c1cc([N+](=O)[O-])c(NCC2CCS(=O)(=O)C2)c([N+](=O)[O-])c1 (stereo not drawn),inactive: -3.16%
13,O=P1(N(CCCl)CCCl)SCCCS1,inactive: -24.1%
